# Experimental data from patent US20070059684A1 (UNIVERSITY OF MEDICINE AND DENTISTRY OF NEW JERSEY, published 2007).
# System: translation (LUC0 reporter mRNA)
# Settings: yeast extract, lower drug doses
smiles,measurement,value
COc1ccc(C[C@H]2NC[C@H](O)[C@H]2OC(C)=O)cc1 [anisomycin],luciferase production from the LUC0 reporter mRNA,initially stimulate luciferase production
